Source: patent publication US20110003012A1, “TREATING PATIENTS WITH SUBARACHNOID HEMORRHAGE” (Duke University, priority 2007, published 2011)

Tested on: subarachnoid hemorrhage
Assay: Working Examples: patient with subarachnoid hemorrhage
Conditions: SNP 1 nmol/kg intravenously and potassium nitrite 50 nmol/kg

For sodium nitroprusside, the “Mean arterial blood pressure reduction” value was at most 10% and the Vasospasm (started within three hours) was “does not occur”.

This is a selection: effects in other tests are not listed, and their absence says nothing.
